Screening results from PubChem BioAssay.
Nrf2 activator = qHTS of Nrf2 Activators; AREc32 ARE-luciferase reporter (MCF7-derived line), luminescence, 24 h; Potency, µM (titrated, usually from 46.1 µM), without a hit: at the top dose activation, most hits filed as activators; hit rate 0.31% among 410,000; note: % of control where 0% means no effect; nearly all actives have a fitted effect of over 65% in size
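Nrf2 activation is followed as ARE-luciferase induction in the AREc32 line after one day of compound treatment; luminescence is read with Steady-Glo.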
Nrf2 inh = Nrf2 qHTS screen for inhibitors. hit rate 2.1% among 360,000. A549 ARE-Fluc reporter, luciferase luminescence, 18-24 h. Potency, µM (doses to about 46 µM), for inactives: at the highest dose activity change, negative = inhibition, actives largely listed as inhibitors; note: % is set by controls: 0 for no effect and ±100 for the full control effect; nearly all actives have a fitted effect of over 60% in size
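Two sequential reads on A549 ARE_Fluc cells exposed to compound for 18-24 h: a CellTiter-Fluor fluorescence read for viability, then a luciferase luminescence read for Nrf2/ARE activity.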
Rango-impB inh = qHTS Assay for Inhibitors of Rango (Ran-regulated importin-beta cargo) - Importin beta complex formation. Importin subunit beta-1 (Homo sapiens), Q14974. Rango CFP/YFP FRET sensor + importin beta, 45 min. Potency, µM (doses to about 92.2 µM), inactives show top-dose inhibition of complex formation. hit rate 0.031% among 340,000. AID 540263, 2011; calls by dose curve;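 note: 0% = DMSO wells and 100% = buffer wells lacking importin beta; nearly all actives have a fitted effect of over 15% in size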
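Inhibition scored from the CFP 486 nm/YFP 530 nm FRET ratio 45 min after adding 0.125 microM importin beta to 50 nM Rango biosensor preincubated 5 min with compound (room temperature, PBS with DTT, Tween-20, BSA). No-importin wells as positive control.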
Rango release inh = qHTS Assay for Inhibitors of RanGTP induced Rango (Ran-regulated importin-beta cargo) - Importin beta complex dissociation | Snurportin-1 (Homo sapiens) + GTP-binding nuclear protein Ran (Homo sapiens) + Importin … | Biochemical FRET Rango-importin beta, RanGTP-induced dissociation | Potency, µM (titrated, usually from 46.1 µM), inactives show at the top dose activity change, negative = inhibition | hit rate 0.071% among 340,000; calls by dose curve; note: % of control where 0% means no effect; nearly all actives have a fitted effect of over 45% in size
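Compounds preincubate 5 min with complex of recombinant Rango and importin beta in PBS with 1 mM DTT. Ran (0.6 uM) loaded with 2 mM GTP plus 0.2 uM RCC1 starts dissociation; FRET is recorded 45 min later.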
A549 tox = Nrf2 qHTS screen for inhibitors: counterscreen for cytotoxicity; A549 ARE-Fluc cells, CellTiter-Fluor viability, 18-24 h; Potency, µM (highest dose often 46 µM), for the others: at the highest dose activity change, negative = cytotoxicity, actives largely listed as inhibitors; hit rate 0.16% among 390,000; note: % is set by controls: 0 for no effect and ±100 for the full control effect
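A549 ARE_Fluc cells in 5% FBS OPTI-MEM were exposed to compounds in concentration-response for 18-24 h at 37 deg C. Viability was read by CellTiter-Fluor fluorescence (Ex 405/Em 525) after 30 min, before the luciferase read.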
* = called active by the depositor; ? = inconclusive; . = no result. This is a sample that favours compounds with a hit; in the whole collection about 2.3% have one here. Unless noted, calls come from the whole dose curve; as a rule, active = well fitted curve in the direction sought with a large enough effect; inconclusive = small, poorly fitted or top-dose-only effect, or another doubt; inactive = no such curve, though single readings can be large; an effect the other way counts as inactive or inconclusive. Potency is the fitted concentration of half-maximal effect.

Protein sequences, listed by entry. Tags and fused reporters are not part of them.
Importin subunit beta-1 (Homo sapiens), Q14974, UniProt Q14974, whole entry, looked up: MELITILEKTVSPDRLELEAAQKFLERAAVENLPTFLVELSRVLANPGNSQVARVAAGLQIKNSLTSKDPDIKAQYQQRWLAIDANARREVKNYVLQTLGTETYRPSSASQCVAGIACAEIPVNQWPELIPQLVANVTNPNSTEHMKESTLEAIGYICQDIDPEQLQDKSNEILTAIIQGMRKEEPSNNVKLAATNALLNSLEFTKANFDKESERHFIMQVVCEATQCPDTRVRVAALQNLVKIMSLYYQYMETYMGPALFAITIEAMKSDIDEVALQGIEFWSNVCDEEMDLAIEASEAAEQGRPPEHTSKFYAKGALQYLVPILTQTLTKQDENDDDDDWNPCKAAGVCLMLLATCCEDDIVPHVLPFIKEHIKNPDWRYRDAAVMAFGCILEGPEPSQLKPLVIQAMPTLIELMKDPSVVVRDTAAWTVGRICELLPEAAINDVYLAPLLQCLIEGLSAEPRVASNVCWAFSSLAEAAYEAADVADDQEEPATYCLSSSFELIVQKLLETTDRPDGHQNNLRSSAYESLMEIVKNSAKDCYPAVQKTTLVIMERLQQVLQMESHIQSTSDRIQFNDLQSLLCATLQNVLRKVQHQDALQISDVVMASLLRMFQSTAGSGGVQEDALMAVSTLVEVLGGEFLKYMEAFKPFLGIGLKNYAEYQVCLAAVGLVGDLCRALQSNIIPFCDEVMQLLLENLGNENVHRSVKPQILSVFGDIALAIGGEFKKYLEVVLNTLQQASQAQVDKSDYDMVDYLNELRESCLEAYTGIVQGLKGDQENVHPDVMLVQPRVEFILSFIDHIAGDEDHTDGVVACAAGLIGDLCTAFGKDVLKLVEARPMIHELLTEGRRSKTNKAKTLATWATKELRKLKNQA

| cpd | SMILES | Nrf2 activator | Nrf2 inh | Rango-impB inh | Rango release inh | A549 tox |
| --- | --- | --- | --- | --- | --- | --- |
| 1 | COC(=O)c1sccc1NC(=O)c1ccc(Br)o1 | 5.6µM* | 27% | 1% | 5% | 0% |
| 2 | Cc1ccc(-c2csc(NC(=O)CCNC(=O)c3ccccc3Cl)n2)cc1 | 7% | 23µM* | ? | 6% | -6% |
| 3 | O=C(Nc1nc(-c2ccccc2)c(C(=O)c2ccccc2)s1)c1ccc(S(=O)(=O)N2CCCCC2)cc1 | 0% | 15µM* | ? | ? | -19% |
| 4 | O=C(Nc1nc(-c2cccs2)cs1)c1ccc(S(=O)(=O)N2CCCCC2)cc1 | 12% | 21µM* | -3% | 18% | -5% |
| 5 | Cc1noc(C)c1C(=O)Nc1nc(-c2cccs2)cs1 | 16µM* | ? | 4% | 15% | 11% |
| 6 | O=C(Nc1nc(-c2ccccc2)c(-c2ccccc2)s1)c1ccc(S(=O)(=O)N2CCCCC2)cc1 | 2% | 5% | 1% | 1% | 3% |
| 7 | CCCNS(=O)(=O)c1cccn1-c1ncc(C(F)(F)F)cc1Cl | 0% | -11% | 0% | 6% | -7% |
| 8 | O=S(=O)(NCc1cccnc1)c1cccn1-c1ncc(C(F)(F)F)cc1Cl | 0% | 16µM* | 5% | 16% | -12% |
| 9 | COc1ccc(CN2CCc3c([nH]c4ccccc34)C2)c(OC)c1C | 5% | -1% | 6% | 4% | -13% |
| 10 | Cc1cc(C(=O)Nc2cccc(S(=O)(=O)N3CCCC3)c2)c2ccccc2n1 | 0% | ? | -3% | 2% | -7% |
| 11 | CC1CN(S(=O)(=O)c2cccc(C(=O)Nc3ccccc3N3CCCCC3)c2)CC(C)O1 (centres undefined) | 0% | 16µM* | 1% | -4% | ? |
| 12 | O=C(Nc1cccc(S(=O)(=O)N2CCCC2)c1)c1cc(-c2ccccn2)nc2ccccc12 | 0% | 9.2µM* | 0% | -6% | -1% |
| 13 | Cc1ccccc1OCCOC(=O)c1cc(S(=O)(=O)N2CCCCC2)ccc1N1CCOCC1 | 0% | 16µM* | 0% | 43% | -6% |
| 14 | O=C(Nc1ccc(N2CCOCC2)cc1)c1cccc(S(=O)(=O)N2CCCCC2)c1 | 0% | 21µM* | 0% | -11% | -13% |
| 15 | COCCCNC(=O)Cn1c(=O)n(Cc2ccc(C(=O)NCc3ccc(C)cc3)cc2)c(=O)c2ccccc21 | -1% | -22% | . | . | 1% |
| 16 | CC(C)(C)OC(=O)C[C@H]1C/C=C\C[C@@H](CC(=O)N(CCO)Cc2ccccc2)C(=O)N[C@H](Cc2c[nH]c3ccccc23)COC1=O | 4% | 13% | -4% | 0% | -6% |
| 17 | CC1CN(S(=O)(=O)c2cccc(C(=O)N(C)C3CCN(C)CC3)c2)CC(C)O1 (centres undefined) | 0% | 4% | 2% | 18% | -1% |
| 18 | Cc1ccc(COC(=O)c2cc(S(=O)(=O)N3CCOCC3)ccc2C)cc1 | 0% | 16µM* | 1% | -5% | 10% |
| 19 | CC1CCN(S(=O)(=O)c2cccc(C(=O)NCC3CCCO3)c2)CC1 (centres undefined) | 0% | 13µM* | 0% | -7% | 2% |
| 20 | CC1CN(S(=O)(=O)c2cccc(C(=O)N=c3sccn3C)c2)CC(C)O1 (centres undefined) | 3% | 12µM* | -4% | -15% | -18% |
| 21 | O=C(Nc1ccncc1)c1cccc(S(=O)(=O)N2CCCC2)c1 | 0% | 8.2µM* | -1% | 1% | -19% |
| 22 | O=C(Nc1ccncc1)c1cccc(S(=O)(=O)N2CCOCC2)c1 | 0% | -19% | -4% | ? | -4% |
| 23 | CCOC(=O)c1ccc(NC(=O)C2CCCN(c3ccc(Sc4ccc(C)cc4)nn3)C2)cc1 (centres undefined) | 3% | ? | . | . | -6% |
| 24 | O=C(NCc1ccc(F)cc1)c1cccc(S(=O)(=O)N2CCOCC2)c1 | 0% | 0% | 65µM* | -2% | 0% |
| 25 | CC(=O)c1ccc(NC(=O)c2cc(S(=O)(=O)N3CCOCC3)ccc2C)cc1 | 0% | 15% | 3% | -1% | 1% |
| 26 | O=C(Nc1nnc(S(=O)(=O)N2CCCCC2)s1)c1cccc(Br)c1 | 3% | 26µM* | 0% | 2% | -8% |
| 27 | O=C(NCc1ccncc1)C1CCN(S(=O)(=O)c2cccc(C(F)(F)F)c2)CC1 | 0% | -14% | -5% | 29% | -4% |
| 28 | O=C(Nc1ccncc1)C1CCN(S(=O)(=O)c2cccc(C(F)(F)F)c2)CC1 | 0% | 16µM* | -2% | 3% | -4% |
| 29 | O=C(NCc1ccc(F)cc1)c1cccc(S(=O)(=O)N2CCCC2)c1 | 0% | . | -3% | -14% | 12% |
| 30 | Cc1ccc(S(=O)(=O)N2CCOCC2)cc1C(=O)Nc1ccc(N2CCCCCC2)cc1 | 4% | 21µM* | 1% | 10% | -20% |
| 31 | CCN(CC)CCNC(=O)c1c(C)oc2ncnc(N3CCOCC3)c12 | 0% | ? | . | . | 1% |
| 32 | Cc1cc2c(s1)c1cnn(Cc3cccc(Br)c3)c(=O)c1n2C | . | ? | . | . | -1% |
| 33 | Cc1nc2ccccc2n1CCc1nc2c3ccccc3nc(SCc3ccc(C#N)cc3)n2n1 | -1% | . | . | . | -8% |
| 34 | Nc1nsc2ccccc12 | 11µM* | ? | 3% | 13% | -17% |
| 35 | Nc1nnc(N)c2ccccc12 | 1% | 6% | 5% | 0% | -3% |
| 36 | O=C(C1CCCO1)N1CCN(c2ccccn2)CC1 (centres undefined) | 0% | 3% | 4% | 0% | 1% |
| 37 | O=C(NCc1ccccn1)c1ccc(CNS(=O)(=O)c2ccc(F)cc2)cc1 | -1% | -5% | -2% | 2% | -1% |
| 38 | O=C(Nc1ccccc1)N1CCN(c2cccc(C(F)(F)F)c2)CC1 | -1% | 23µM* | -1% | 5% | -16% |
| 39 | CC1CCc2onc(C(=O)N3CCN(c4cccc(C(F)(F)F)c4)CC3)c2C1 (centres undefined) | 0% | 21µM* | . | . | -3% |
| 40 | CCC(C)[C@H](NC(=O)N1CCN(c2cccc(C(F)(F)F)c2)CC1)C(=O)OC (some centres undefined) | -1% | 18µM* | -4% | -16% | -10% |
| 41 | FC(F)(F)c1cccc(N2CCN(C(=S)NCC3CCCO3)CC2)c1 (centres undefined) | 3% | 13µM* | ? | -20% | ? |
| 42 | Cc1cc2c(s1)c1cnn(Cc3cccc(Cl)c3F)c(=O)c1n2C | . | 7% | . | . | -2% |
| 43 | O=C(Nc1ccc(C(F)(F)F)cc1)C1CCC(CNS(=O)(=O)c2cccc3nsnc23)CC1 (centres undefined) | 3% | ? | . | . | -1% |
| 44 | COC(=O)c1ccccc1C(=O)N1CCC(CCC(=O)NC2CC2)CC1 | -2% | -5% | 0% | 3% | -2% |
| 45 | COc1cc(F)c(S(=O)(=O)N2CCN(S(=O)(=O)c3ccco3)CC2)c(F)c1 | . | 9% | . | . | -4% |

Exported as labelled records: 4 of the compounds above.
#40 CCC(C)[C@H](NC(=O)N1CCN(c2cccc(C(F)(F)F)c2)CC1)C(=O)OC (some centres undefined)
- Nrf2 activator: -1%
- Nrf2 inh: 18µM*
- Rango-impB inh: -4%
- Rango release inh: -16%
- A549 tox: -10%
#41 FC(F)(F)c1cccc(N2CCN(C(=S)NCC3CCCO3)CC2)c1 (centres undefined)
- Nrf2 activator: 3%
- Nrf2 inh: 13µM*
- Rango-impB inh: ?
- Rango release inh: -20%
- A549 tox: ?
#42 Cc1cc2c(s1)c1cnn(Cc3cccc(Cl)c3F)c(=O)c1n2C
- Nrf2 activator: .
- Nrf2 inh: 7%
- Rango-impB inh: .
- Rango release inh: .
- A549 tox: -2%
#43 O=C(Nc1ccc(C(F)(F)F)cc1)C1CCC(CNS(=O)(=O)c2cccc3nsnc23)CC1 (centres undefined)
- Nrf2 activator: 3%
- Nrf2 inh: ?
- Rango-impB inh: .
- Rango release inh: .
- A549 tox: -1%
